Results published in patent US6677431B2, “Design, preparation, and properties of antibacterial β-peptides” (The Trustees of the University of Pennsylvania, priority 1999, dated 2004).

Experiment: Hemolysis assay, 50% lysis of RBC's
Format: cell-based
Settings: human, 0.25% suspension of human erythrocytes (RBCs), pH 7; under the hemolysis conditions of Group I peptides; read-out: LD50
Procedure: The biological activities of these peptides were measured using human erythrocytes and E. coli as models for mammalian and bacterial cells, respectively. Hemolysis was monitored in 10 mM Tris, 150 mM NaCl, pH 7.0, while the bacterial assay was conducted in minimal media M9 (Table 1); both of these solutions are sufficiently transparent to allow CD and ultracentrifugation measurements (supplementary material). Under the assay conditions, the peptides gave CD spectra similar to those in Tris buffer, with the exception of H-(β^3-HLeu-β^3-HLys-β^3-HLeu)n-OH, n=5 and 6.
∇in M9 medium (data from Hamuro et al., ref. 5) # In M9 medium.+Hemolysis experiments were performed by incubating a 0.25% suspension of human RBc's in 10 mM Tris buffer containing […] at pH 7.0 with varying amounts of peptide. The hemolytic dose required to lyse 50% of the RBC's is reported as the HD50.
Hemolysis experiments were carried out by incubating 0.25% suspension of human erythrocytes (RBC's) with peptides of different concentrations in 150 mM sodium choloride, 10 mM Tris buffer, pH 7.0. The sample was prepared by combining 400 μL of the RBC suspension and […] of the peptide solution. After incubated the sample at 37— C. for 1 hour, the sample was centrifuged at 14,000 rpm for 5 min, and the OD414 of the supernatant was measured. Mellitin (50 μM) was used to get 100% hemolysis. […]

CC[C@H](C)[C@H](NC(=O)CN)C(=O)NCC(=O)N[C@@H](C)C(=O)N[C@H](C(=O)N[C@@H](CC(C)C)C(=O)N[C@@H](CCCCN)C(=O)N[C@H](C(=O)N[C@@H](CC(C)C)C(=O)N[C@H](C(=O)N[C@H](C(=O)NCC(=O)N[C@@H](CC(C)C)C(=O)N1CCC[C@H]1C(=O)N[C@@H](C)C(=O)N[C@@H](CC(C)C)C(=O)N[C@H](C(=O)N[C@@H](CO)C(=O)N[C@@H](Cc1c[nH]c2ccccc12)C(=O)N[C@H](C(=O)N[C@@H](CCCCN)C(=O)N[C@@H](CCCNC(=N)N)C(=O)N[C@@H](CCCCN)C(=O)N[C@@H](CCCNC(=N)N)C(=O)N[C@@H](CCC(N)=O)C(=O)N[C@@H](CCC(N)=O)C(N)=O)[C@@H](C)CC)[C@@H](C)CC)[C@@H](C)O)[C@@H](C)O)C(C)C)C(C)C [melittin, reference compound]
HC50 at 1 h: ~500 nM
